# Experimental data reported in patent publication US20150346192A1 (Sanofi, published 2015).
# Columns and labels:
# [1] = biological target: T1, ATP-binding cassette, sub-family E, member 1 (rat, UniProt D3ZD23 1-558); assay: IP of RBL-2H3 lysate on nickel beads, MS/MS ProtScore; 1st value
# Excerpt: (§1) The three Ab fragments, as well as the appropriate irrelevant Abs, were purified and immobilised on magnetic nickel beads thanks to their 6×His tag. They were used to immunoprecipitate protein lysates from RBL-2H3 cells stimulated or not beforehand via the FcεRI. After the immunoprecipitations, the beads were washed in low stringency conditions in order to preserve low affinity bindings.
# (§2) After electrophoresis on acrylamide gel (SDS-PAGE), and staining with Coomassie blue, bands present when immunoprecipitated by Ab fragments 3H2-1 and 5H4 and whose intensity was either higher as compared to the irrelevant Ab, or who were absent with the irrelevant Ab, were cut. After digestion with trypsin, the bands were analysed by mass spectrometry MS/MS using the MALDI-TOF (matrix-assisted laser desorption/ionization time of flight) technique.
# (§3) The Mass spectrometer which was used is composed of a laser which ionises previously digested peptides; an analyser which measures the mass/charge (m/z) ratios of the ionised peptides as a function of their flight time; and a detector which records the number of ions for each given m/z ratio. The obtained spectra of m/z ratios allow the identification of peptides and thus proteins present in the samples, by interrogating the Genebank rat database, as well as the mouse database for comparison (the mice Genebank data being more complete). […]
# [2] = biological target: T1, ATP-binding cassette, sub-family E, …; assay: IP of RBL-2H3 lysate on nickel beads, MS/MS ProtScore; 2nd value
# Excerpt: as §1, §2, §3
binder,measurement,setting,value
"5H4-VH (other, Single human-derived VH domain (truncated scFv, VH only) on the 13R4 framework; produced in E. coli, immobilised on nickel beads; also called 5H4-VH fragment; intracellular antibody 5H4-VH; not shown: C-terminal Myc tag and 6xHis tag from vector pET23NN) VH: MAEVQLVESGGSLVKPGGSLRLSCAASGFTFSNYSMNWVRQAPGKGLEWISSISGSSRYIYYADFVKGRFTISRDNATNSLYLQMNSLRAEDTAVYYCVRDGGLREGFDCWGRGTLVTVSSAAAEQKLISEEDLNGAA",Protscore IP,[1],4
same,Protscore IP,[2],4
